Data taken from US8637502B2, “2,3,4,5-tetrahydro-benzo{B}{1,4}diazepine-comprising compounds of formula(III) for treating pain” (dated 2014).

Assays:
[1] = target: T1, human opioid receptor-like (ORL-1) (Homo sapiens (Human), UniProt P41146); test: ORL-1 receptor [35S]GTPγS functional binding assay; details: for EC50: read-out: GTP EC50 ORL-1, [35S]GTPγS, HEK-293 membranes; for GTP Emax ORL-1: maximal effect relative to nociceptin
μ-opioid receptor = μ-opioid receptor (Homo sapiens (Human), UniProt P35372); test: In vitro μ-opioid receptor binding assay ([3H]-diprenorphine displacement); details: read-out: Ki [Average ± Std Deviation] Opioid Receptor μ; 0.2 nM [3H]-diprenorphine
kappa opioid receptor [2] = target: T2, kappa opioid receptor (Homo sapiens (Human), UniProt P41145); test: In vitro κ-opioid receptor binding assay ([3H]-U69,593 displacement); details: read-out: Ki [Average ± Std Deviation] Opioid Receptor κ; membranes from recombinant HEK-293 cells; 0.4-0.8 nM [3H]-U69,593
[3] = target: T1, human opioid receptor-like (ORL-1); test: In vitro ORL-1 receptor binding assay ([3H]-nociceptin displacement); details: read-out: Ki [Average ± Std Deviation] ORL-1; membranes from recombinant HEK-293 cells; 0.1 nM [3H]-nociceptin
delta opioid receptor = delta opioid receptor (Homo sapiens (Human), UniProt P41143); test: In vitro δ-opioid receptor binding assay ([3H]-Naltrindole displacement); details: read-out: Ki [Average ± Std Deviation] Opioid Receptor δ; recombinant receptor expressed in CHO-K1 cells; 0.2 nM [3H]-Naltrindole
kappa opioid receptor [4] = target: T2, kappa opioid receptor; test: κ-opioid receptor [35S]GTPγS functional assay; details: maximal effect relative to U69,593

SMILES | EC50 [1] [nM] | Ki (μ-opioid receptor) [nM] | GTP Emax ORL-1 [1] [%] | Ki (kappa opioid receptor [2]) [nM] | Ki [3] [nM] | Ki (delta opioid receptor) [nM] | GTP Emax Opioid Receptor κ (kappa opioid receptor [4]) [%]
O=c1[nH]c2ccccc2n([C@H]2C[C@H]3C=C[C@@H](C2)N3C2/C=C\CCCCC2)c1=O (some centres unmarked) [listing 1 of 2 here] | 36 | – | – | – | – | – | –
O=c1[nH]c2ccccc2n([C@H]2C[C@H]3C=C[C@@H](C2)N3C2/C=C\CCCCC2)c1=O (some centres unmarked) [listing 2 of 2 here] | – | 1380 | 62 | 119 | 5.6 | 23400 | 17
O=c1[nH]c2ccccc2n([C@@H]2C[C@H]3C=C[C@@H](C2)N3C2/C=C\CCCCC2)c1=O (some centres unmarked) [listing 1 of 2 here] | – | 15800 | 82 | 682 | 56 | 22800 | 22
O=c1[nH]c2ccccc2n([C@@H]2C[C@H]3C=C[C@@H](C2)N3C2/C=C\CCCCC2)c1=O (some centres unmarked) [listing 2 of 2 here] | 830 | – | – | – | – | – | –
